Test results: paper PMC2096648 (Purinergic Signalling, 2006)

Experiments:
[1] = target: T1, recombinant human adenosine A2B receptors expressed in HEK-293 cell membranes (Homo sapiens, UniProt P29275); experiment: Effect of salts and additives on specific binding of 1 nM [^3H]PSB-298; settings: for increase of specific binding of the radioligand: 1 nM [^3H]PSB-298
T1 sequence (P29275 1-332): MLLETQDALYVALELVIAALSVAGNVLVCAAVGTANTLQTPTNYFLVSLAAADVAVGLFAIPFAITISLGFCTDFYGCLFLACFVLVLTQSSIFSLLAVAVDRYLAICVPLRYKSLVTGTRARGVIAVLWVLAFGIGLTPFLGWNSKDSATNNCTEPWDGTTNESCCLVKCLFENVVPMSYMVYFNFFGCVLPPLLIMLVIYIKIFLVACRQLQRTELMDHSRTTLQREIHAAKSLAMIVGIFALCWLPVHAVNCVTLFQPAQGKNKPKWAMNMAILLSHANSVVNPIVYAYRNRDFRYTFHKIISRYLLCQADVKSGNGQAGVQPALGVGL

[2] = tested on: human adenosine A2B receptors; settings: 100 mM NaCl; cited from earlier work
[3] = target: T2, human A2B adenosine receptors expressed in HEK-293 cell membranes (Homo sapiens, UniProt P29275); experiment: Sodium shift and GTP shift competition experiments versus [^3H]PSB-298; type: binding; settings: GTP 1 mM; data not shown
T2 sequence (P29275 1-332): T1 sequence (P29275 1-332)

| Structure (SMILES) | increase of specific binding of the radioligand ([1]; 100 mM NaCl) | change of specific binding of 1 nM [^3H]PSB-298 ([1]; 1 M NaCl) | increase of specific binding of the radioligand ([1]; up to 3 M NaCl) | effect of NaCl on binding of [^3H]MRS1754 [2] | effect of GTP on competition curve [3] |
| --- | --- | --- | --- | --- | --- |
| [Cl-].[Na+] [NaCl, sodium chloride] | 245 ± 55% | more than doubled | 594 ± 116% | had not shown any effect | – |
| CCNC(=O)[C@H]1O[C@@H](n2cnc3c(N)ncnc32)[C@H](O)[C@@H]1O [NECA, 5′-N-ethylcarboxamidoadenosine] | – | – | – | – | no significant effect |
